The target of this assay is D(2) dopamine receptor (Rattus norvegicus, UniProt P61169). The assay can be described thus: Displacement of [3H]spiperone from rat dopamine D2 receptor in brain striatal membrane. Format: cell membranes.

The chains behind the UniProt entries cited, without tags or fusion partners.
UniProt P61169, whole entry: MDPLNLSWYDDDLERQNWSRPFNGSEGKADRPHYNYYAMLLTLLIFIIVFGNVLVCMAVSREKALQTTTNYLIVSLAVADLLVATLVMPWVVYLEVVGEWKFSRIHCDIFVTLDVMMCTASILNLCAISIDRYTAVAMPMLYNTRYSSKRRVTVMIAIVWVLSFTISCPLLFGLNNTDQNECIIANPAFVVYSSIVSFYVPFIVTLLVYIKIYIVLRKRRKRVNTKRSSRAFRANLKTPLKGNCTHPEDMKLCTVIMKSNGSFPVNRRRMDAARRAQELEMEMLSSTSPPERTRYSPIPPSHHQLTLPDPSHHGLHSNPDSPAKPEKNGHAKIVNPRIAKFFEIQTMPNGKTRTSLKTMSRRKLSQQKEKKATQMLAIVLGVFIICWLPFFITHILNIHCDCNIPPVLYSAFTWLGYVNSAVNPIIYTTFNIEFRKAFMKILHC

As a reminder, the IC50 is the concentration that inhibits the measured activity by half. The Ki is the dissociation constant of the complex between target and ligand, obtained from inhibition or displacement. `CN1CCc2cccc3c2[C@H]1Cc1ccc(O)c(O)c1-3.CN1CCc2cccc3c2[C@H]1Cc1ccc(O)c(O)c1-3.Cl.Cl.O` [APOMORPHINE HYDROCHLORIDE] had an IC50 of 0.087 µM and a Ki of 0.0477 µM.

For the origin of these results see ChEMBL document CHEMBL1157158, “Synthesis and neuropharmacological evaluation of 2-aryl- and alkylapomorphines” (Bioorg Med Chem, 2008).
